# Measured affinities in a library of Ab-14 heavy chain variants

Data: MIT Lincoln Laboratory AlphaSeq set, Li et al. 2023, doi:10.1038/s41467-023-39022-2, as distributed in FLAb.

Target peptide (SARS-CoV-2 spike, HR2 region): PDVDLGDISGINAS

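Phage display of a naive human antibody library on the peptide gave the parent. Designed CDR sequences, proposed from the first random library and measured here. Several design methods are mixed in this list. The scFvs were displayed on barcoded MATa yeast, the peptide on MATalpha yeast. Pairs that bind mate more often; barcode pairs of the diploids are counted by sequencing. Scores were corrected for input abundance and mapped to Kd with protein pairs of known affinity run in the same pool. Each pool was mated in six replicate cultures.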

The variants keep the light chain, the linker and the frameworks of Ab-14 (scFv order VH, three GGGGS repeats, VL).
VH: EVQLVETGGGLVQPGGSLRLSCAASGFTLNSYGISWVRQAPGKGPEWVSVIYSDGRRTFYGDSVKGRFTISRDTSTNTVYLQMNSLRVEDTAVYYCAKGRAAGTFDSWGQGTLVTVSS
VL: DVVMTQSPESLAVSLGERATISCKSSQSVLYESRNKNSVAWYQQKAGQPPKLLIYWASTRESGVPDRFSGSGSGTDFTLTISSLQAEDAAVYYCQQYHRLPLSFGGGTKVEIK

Variants are written as CDR1, CDR2 and CDR3 of the heavy chain (limits as in the source). Parent: GFTLNSYGIS, VIYSDGRRTFYGDSVK, GRAAGTFDS. The Kd shown is the geometric mean over detected replicates; a lower Kd is a better binder. An entry "no signal" has no value in the source: the pair was not observed among the diploids in any replicate. This suggests poor binding but is not conclusive. Of ten entries with the parent sequence, four were seen in most replicates (averages 2.2 nM to 240 nM), three in one and three in none, so single entries are noisy.

CDR-H1 | CDR-H2 | CDR-H3 | apparent Kd | replicates with signal
GRTLNSYGIS | VIYSDGRRTAYGDSVK | GRAAGTPDS | 130 nM | 2 of 6
NFDLNSYGIS | VIYSDTRRTFYGDSVK | GRWAGWFNS | no signal | 0 of 6
GFVLNSYGIS | VIYADGRRTFYGDSVK | GEAAGTFDS | 72 nM | 4 of 6
GFTLDSYGIS | VIYSDGRRTFYGDSVK | GRAAGTFLS | no signal | 0 of 6
GFDLNEYGIS | VIYADGVRTAYIDSVK | GHAAGTFDV | 220 pM | 6 of 6
GFTLNSYGIS | VIYSDGRRTFYSDSVK | GRAAVTFDK | no signal | 0 of 6
GFTILSYGIS | VIYSDGRRTFYSDSVK | GRAAGTFDS | no signal | 0 of 6
GFELNSYGIS | VIYSDGRRTFYSDSVK | GQTAGTFDK | 1.2 nM | 5 of 6
GFDLNEYGIS | VIYADGRRTFYDDSVK | GNLAGTFDL | 26 pM | 6 of 6
GFQLNEYGIS | VIYSDGRRTFYVDSVK | GQTAGTFDS | 2.6 nM | 6 of 6
GFYLNSYGIS | VIYFDGRRTFYDDSVK | GQLAGTFDS | 7.9 nM | 6 of 6
GFDLNSYGIS | VIYSDGRRTFYGDSVK | GEAAGTFNS | 1.8 nM | 6 of 6
GYDIEEYGIS | VIYADGKRNAYANSVK | GKWAGAFVD | 250 nM | 1 of 6
GFTLNSYGIS | VIYSDGRRTFYGDSTK | GRAAGTFKS | no signal | 0 of 6
GFDLDEYGIS | VIYADGMRTFYADSVK | GENAGTFDV | 870 pM | 6 of 6
GFSLNSYGIQ | VDYSDGRRTAYGDSVK | GRAAGTFDS | no signal | 0 of 6
GFELNMYGIS | VIYSDGRRTFYIDSVK | GQAAGTFDS | 2.8 nM | 1 of 6
GFDLNEYGIS | VIYADGKRTAYANSVK | GNVAGTFDV | 280 pM | 6 of 6
GFTLNEYGIS | VIYSDGRRTFYTDSVK | GLFAGTFDS | 430 pM | 6 of 6
GNDLNEYGIS | VIYADGSRTSYIDKVK | GLVGGMLIV | no signal | 0 of 6
GFDLNEYGIS | VIYADGRRTFYADSVK | GKNAGTFVV | 2.3 nM | 6 of 6
GFHLNSYGIS | VIYSDGRRTFYHDAVK | GRAAGTFDS | no signal | 0 of 6
GFDLNMYGIS | VIYSDGRRTFYGDSVK | GNAAGTFDS | no signal | 0 of 6
GFDLNEYGIS | VIYADGMRTFYADDVK | GNVAGTFDL | 210 pM | 6 of 6
GFTLNSYGIS | VIYSDGRRTFYGDSVK | GFLTGTFDS | 35 nM | 1 of 6
GFDLDEYGIS | VIYADGMRTFYADSVK | GNIAGTFLT | 710 pM | 6 of 6
GFTLNSYGIS | VIYSDGRRTFYNDSVK | GVAAGTFSS | no signal | 0 of 6
GFDLNEYGIS | VIYADGVRTFYADSVK | GNNAGTFDV | 530 pM | 6 of 6
GFTLNSYGIS | VIYSDGERTFYGDSVK | GRAAGTGDS | no signal | 0 of 6
GFDLNEYGIS | VIYADGKRTAYIDSVK | GETAGTFDV | 1.7 nM | 6 of 6
GFDLGEYGIS | VIYADGHRTAYSTSVK | GTIGGMFFN | no signal | 0 of 6
GFTLNSYGIS | VIYSDGRRTFYGDSVK | GKAAGTFNS | 740 pM | 6 of 6
GDTLNSYGIS | VIYSDGRRTFYADSVK | GRNAGRFDS | no signal | 0 of 6
GFDLNEYGIS | VIYADGKRTFYTDSVK | GTNAGTFDM | 380 pM | 6 of 6
GFDLDEQGIS | VIYADGQRKAYANQVK | GNQGNIART | 220 pM | 6 of 6
GFDLDEYGIS | VIYADGMRTAYSDSVK | GENAGTFDI | 270 pM | 6 of 6
GFVLNEYGIS | VIYSDGRRTFYGDSVK | GRNAGTFDS | 4.7 nM | 5 of 6

The remaining entries, values ahead:

apparent Kd | replicates with signal | CDR-H1 | CDR-H2 | CDR-H3
290 pM | 6 of 6 | GFDINEYGIS | VIYADGRRTAYADSVK | GEAAGTFDV
25 nM | 2 of 6 | GFDLNQYGIS | VIYSDGRRTFYGDSVK | GREAGTFDS
910 pM | 6 of 6 | GFDLDEYGIS | VIYADGQRTFYQDSVK | GQNAGTFDQ
1.0 nM | 6 of 6 | MFDLNSYGIS | VIYSDGRRTAYGDSVK | GREAGTFDS
420 pM | 6 of 6 | GFDLNEYGIS | VIYADGRRTFYSDSVK | GTAAGTFDM
12 nM | 6 of 6 | GFGLKSYGIS | VIYADGRRTFYGDSVK | GKAAGTFDS
18 nM | 1 of 6 | GFTLNDYGIS | VIYSDGRRTFYGDSAK | GRAALTFIS
4.9 nM | 6 of 6 | GFSLNSYGIS | VIYSDGRRTFYADSVK | GKAAGTFDN
67 nM | 1 of 6 | GFSLNEYGIS | VIYSDGRRTFYGDSVK | GRAAVTFDC
no signal | 0 of 6 | GFTLNSYGIS | VIYSDGRRTMYGDSNK | GRLIGTFDS
no signal | 0 of 6 | GFALNEYGIS | VIYADGSRSAYIESVK | GVNNIDVNV
no signal | 0 of 6 | GFTLDSYGGS | VIYSDGRRTFYGDSVK | GRAAGQFDQ
no signal | 0 of 6 | GYDLDDYGIS | VIYADGKRTSYAEDVK | GLIGGSLSN
420 pM | 6 of 6 | GFDLNEYGIS | VIYADGKRTFYADSVK | GEAAGTFDQ
1.4 nM | 6 of 6 | GFDLNEYGIS | VIYADGKRTAYSDSVK | GNAGGTFDV
20 nM | 4 of 6 | GFTLNEYGIS | VIYSDGRRTFYGDSVK | GRAAGTFEV
no signal | 0 of 6 | KFKLNSYGIS | VIYSDGRRTFYIDSVK | GRNAGTFDS
330 pM | 6 of 6 | GFDLNEYGIS | VIYADGKRTAYIDSVK | GHAAGTFDV
420 pM | 6 of 6 | GFELNSYGIS | VIYADGRRTFYQDSVK | GEAAGTFDS
660 pM | 6 of 6 | GFDLDEYGIS | VIYADGRRTFYADSVK | GEVAGTFDV
no signal | 0 of 6 | GFTLNSYGIS | VIYSDGRRAGYGDSVK | GRAAWPFDS
no signal | 0 of 6 | GFSLDEYGIS | VIYADGRRTFYADSVK | GNAAGTFDS
290 pM | 6 of 6 | GFDLNEYGIS | VIYADGRRTAYSDSVK | GTNAGTFDM
970 pM | 6 of 6 | GFHLNEYGIS | VIYSDGRRTFYGDSVK | GKTAGTFDS
230 pM | 6 of 6 | GFDLNEYGIS | VIYADGRRTFYVDSVK | GNVAGTFDV
530 pM | 6 of 6 | GFSIDEYGIS | VIYADGARAFYADKVK | GQEVGDLIT
400 pM | 6 of 6 | GFDLNEYGIS | VIYADGRRTFYIDSVK | GNIAGTFDV
290 pM | 6 of 6 | GFDLDEYGIS | VIYADGRRTAYADDVK | GEVAGTFDV
1.3 nM | 6 of 6 | GFTLNEYGIS | VIYSDGRRTFYSDAVK | GREAGTFDS
no signal | 0 of 6 | SFTLNEYGIS | VIYSDGRRTFYTDSVK | GRFAGTFDS
1.6 nM | 6 of 6 | GFDLNSYGIS | VIYSDGRRTFYIDSVK | GRMAGTFDS
no signal | 0 of 6 | GFDLNEYGIS | VIYADGMRTAYADNVK | GNEAGTFDL
no signal | 0 of 6 | GFDLNSYGGS | VIYSDGRRTFYGDSVK | GRAAGTSHN
2.3 nM | 6 of 6 | GFSLNNYGIS | VIYSDGRRTFYGDSVK | GSAAGTFDS
740 pM | 6 of 6 | GFDLNEYGIS | VIYADGQRTAYADDVK | GENAGTFDI
no signal | 0 of 6 | GFTLNSYGIS | VIYSDGRRTFYGHSVK | GRAAGTFDS
8.8 nM | 1 of 6 | MFDLNSYGIS | VIYSDGRRTFYIDSVK | GQAAGTFDS
760 pM | 6 of 6 | GFDLNSYGIS | VIYSDGRRTFYSDSVK | GQLAGTFDS

Top 7 of the variants detected in all replicates, tightest first:

| CDR-H1 | CDR-H2 | CDR-H3 | apparent Kd | replicates with signal |
|---|---|---|---|---|
| GFDLNEYGIS | VIYADGRRTFYDDSVK | GNLAGTFDL | 26 pM | 6 of 6 |
| GFDLNEYGIS | VIYADGMRTFYADDVK | GNVAGTFDL | 210 pM | 6 of 6 |
| GFDLDEQGIS | VIYADGQRKAYANQVK | GNQGNIART | 220 pM | 6 of 6 |
| GFDLNEYGIS | VIYADGVRTAYIDSVK | GHAAGTFDV | 220 pM | 6 of 6 |
| GFDLNEYGIS | VIYADGRRTFYVDSVK | GNVAGTFDV | 230 pM | 6 of 6 |
| GFDLDEYGIS | VIYADGMRTAYSDSVK | GENAGTFDI | 270 pM | 6 of 6 |
| GFDLNEYGIS | VIYADGKRTAYANSVK | GNVAGTFDV | 280 pM | 6 of 6 |

Values of this round are not directly comparable with the first-round values of the same sequences. The authors' rule: three or more of the six replicates give a measured affinity, fewer mean a poor binder. Three control strains display no target. For all heavy chain designs, 1% of the pairings with them gave a signal, with a median of 120 nM and one signal in twenty below 7.0 nM, so weak values seen in few replicates may be background.